Reference: patent publication US20090081786A1, “Peptide sequences for modulation of protein kinase C” (priority 2006, published 2009)

Test system: δ-PKC
Test: PMA-induced translocation of δ-PKC from soluble to particulate fraction in CHO cells
Type: cell-based, hamster
Settings: 1 μM peptide pretreatment, 5 minutes of PMA stimulation
Description: The CHO cells of Example 1 were fractionated, stimulated, and washed with cold PBS, scraped in homogenization buffer, and spun at 100,000 g for 30 min at 4° C., resulting in the soluble fraction. The pellet was then resuspended in a homogenization buffer with 1% TRITON X-100, and spun under the same conditions. Where applicable, the cells were pre-incubated with 1 μM peptide for 15 minutes prior to stimulation. The samples were then analyzed using a Western blot, and the loading was corrected for protein concentration using an internal control such as actin.

“EpAnxV: pAnxV in which the arginine in annexin V was replaced with the glutamate found in δ-PKC (SEQ ID NO:33) (YGRKKRRQRRRCCLQANEDPD; listed as Homo sapiens)” was tested, and the “PMA-induced translocation of δ-PKC to the particulate fraction” value was “inhibitory effect on δ-PKC translocation was lost; also recorded: did not inhibit”.

Entries after “also recorded” stand apart in the source; their conditions may differ.
